{
  "source": "patent US20050209157A1",
  "about": "“Short bioactive peptides and methods for their use” (priority 2001, published 2005)",
  "key": {"WI38": {"tested_on": "WI38", "conditions": "MTT, 24 hours with peptide; for WI38 LD50: normal fibroblast line; for LD50 WI38: WI38 normal lung fibroblast line"}, "[1]": {"tested_on": "human red blood cells (RBC)", "assay_type": "cell-based", "conditions": "hemolytic assay, concentration at 50% hemolysis, 1 hour at 37° C.", "protocol": "This hemolytic assay is based upon that presented in Journal of Peptide Research 53: 82-90 (1999). […] All procedures were performed according to safety protocols pertaining to the handling and disposal of human body fluids.\nRed blood cells (RBCs) were washed three times with PBS (35 mM phosphate buffer 0.15 M NaCl, pH 7.0). RBCs suspended in PBS (0.4% (v/v); about 10 ml per 15 peptides) were prepared. Suspensions (100 μl) were aliquoted to each sample and control tube. Serially diluted peptide solutions (100 μl) were pipetted into the sample tubes. Negative control tubes contained 100 μl PBS; positive control tubes contained 100 μl 1% Triton-X100 detergent. All tubes were incubated for 1 hour at 37° C. The tubes were removed from the incubator and centrifuged at 1000 g for 5 minutes. Supernatant (100 μl) was pipetted to a 96-well polyvinyl chloride plate. The absorbance at 414 nm (A414) was measured, and used to calculate the percent hemolysis according to the following formula. [formula]"}},
  "data": [
    {"substance": "ILPWKWPWWPWRR-COOH [P91, reference compound]", "values": [
      {"measurement": "WI38 LD50", "setting": "WI38", "value": 9, "unit": "µg/mL"},
      {"measurement": "LD50 WI38", "setting": "WI38", "value": 9, "unit": "µg/mL"},
      {"measurement": "LD50", "setting": "[1]", "value": 40, "unit": "µg/mL"}
    ]},
    {"substance": "VAKKLAKLAKKLAKLAL-NH2 [P50]", "values": [
      {"measurement": "WI38 LD50", "setting": "WI38", "value": 43, "unit": "µg/mL"},
      {"measurement": "LD50 WI38", "setting": "WI38", "value": 43, "unit": "µg/mL"},
      {"measurement": "LD50", "setting": "[1]", "value": 420, "unit": "µg/mL"}
    ]},
    {"substance": "FAKALKALLKALKAL-NH2 [P64]", "values": [
      {"measurement": "WI38 LD50", "setting": "WI38", "value": 37, "unit": "µg/mL"},
      {"measurement": "LD50 WI38", "setting": "WI38", "value": 37, "unit": "µg/mL"},
      {"measurement": "LD50", "setting": "[1]", "value": 6, "unit": "µg/mL"}
    ]},
    {"substance": "GIGKFLKKAKKFGKAFVKILKK-NH2 [P42, reference compound]", "values": [
      {"measurement": "WI38 LD50", "setting": "WI38", "value": 67, "unit": "µg/mL"},
      {"measurement": "LD50 WI38", "setting": "WI38", "value": 67, "unit": "µg/mL"},
      {"measurement": "LD50", "setting": "[1]", "value": 300, "unit": "µg/mL"}
    ]}
  ]
}
